According to patent US5110911A, “Human tumor-associated Thomsen-Friedenreich antigen” (Biomira, Inc., priority 1989, dated 1992):

What was measured:
MAb 49H.8 = test: Heterologous sandwich radioimmunoassay for TF antigen, MAb 49H.8 as catcher, 125I-PNA as probe; format: binding, murine; conditions: 125I activity per well (gamma counter), SD printed beside, dilution or amount of each sample printed in its row head
Experimental: (§1) Nonionic detergent (NP-40 or octyl glucoside) extracts of 647V and LS174T cells, culture media conditioned by these cells, and a pleural effusion from a breast cancer patient (PE 89) were tested for TF antigen using a heterologous sandwich radioimmunoassay. Epiglycanin, a murine TF antigen, and TF(α)-HSA, a synthetic TF antigen, served as positive control samples, while HSA, fresh culture media, and detergent extraction buffers served as negative control samples. An isotype matched (IgM) myeloma protein (MOPC-104E) was used further to confirm the specificity of this assay.
(§2) Breakable strips of microtitre wells were coated with MAb 49H.8 or a control antibody (MOPC-104E), 1 μg/well, by overnight incubation at 4° C. The wells were then serially incubated with FBS 5% in PBS at 37° C. for 30 minutes, with antigen solution at 37° C. for two hours, and with radioiodinated PNA (2×10^5 cpm/well) at room temperature for two hours. The wells were washed with PBS containing 0.05% Tween-20 after each of the above steps. Each well was counted for ^125 I activity using a gamma counter.

MOPC-104E = test: Sandwich radioimmunoassay with control antibody MOPC-104E as catcher, 125I-PNA as probe; format: binding; conditions: isotype matched control catcher; 125I activity per well; SD printed beside
Experimental: as §1, §2

Substance	Sandwich Radioimmunoassay for TF Antigen using 125I-PNA as a Probe, MAb 49H.8 as Catcher (MAb 49H.8)	Sandwich Radioimmunoassay for TF Antigen using 125I-PNA as a Probe, MOPC-104E as Catcher (MOPC-104E)	Sandwich Radioimmunoassay for TF Antigen using 125I-PNA as a Probe, MAb 49H.8 as Catcher (MAb 49H.8; listed as TF(o)-HSA)
HSA: negative control sample; 10 μg in Table 1	351	278	
TF(α)-HSA: a synthetic TF antigen, positive control; 10 μg in Table 1	3 997	465	positive reactivity
